# Yeast mating assay 1: variants of the scFv Ab-14

Data: MIT Lincoln Laboratory AlphaSeq set, Engelhart et al. 2022, doi:10.1038/s41597-022-01779-4, as distributed in FLAb.

Antigen: PDVDLGDISGINAS, a 14-residue peptide of the SARS-CoV-2 spike HR2 region.

The variants keep the light chain, the linker and the frameworks of Ab-14 (scFv order VH, the linker GGGGSGGGGSGGGGS, VL).
VH: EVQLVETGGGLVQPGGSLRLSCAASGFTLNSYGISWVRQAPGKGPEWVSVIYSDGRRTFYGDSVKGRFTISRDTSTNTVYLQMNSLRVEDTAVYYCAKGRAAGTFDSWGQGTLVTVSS
VL: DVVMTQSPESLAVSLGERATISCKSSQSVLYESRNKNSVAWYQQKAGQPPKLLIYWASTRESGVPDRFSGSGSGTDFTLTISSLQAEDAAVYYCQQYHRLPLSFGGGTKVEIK

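The parent was found by panning a naive human phage display library on the peptide. The library (AAYL49) carries one to three amino acid substitutions per variant, with no insertions or deletions. In AlphaSeq, yeast of one mating type display the scFv and yeast of the other type display the target. Binding brings cells together so that they mate, and sequencing counts the barcode pairs among the diploids. The ratio of observed to expected reads was calibrated, replicate by replicate, on BCL2-family standards whose Kd was known from biolayer interferometry. The assay was run in three technical replicates.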

Each variant's VH is given in full.
Affinities are written as log10 Kd with Kd in nM; a lower number is a better binder.
"nd" marks a missing value. The strain was present, yet no cells mated with the target were sequenced in that replicate, which points to weak or no binding.
Three control strains display no target. For library AAYL49, 15% of the pairings with them gave a signal, with a median of 4.06 and one signal in twenty below 2.83, so weak values seen in few replicates may be background. For each scFv, signals with the empty controls are counted beside the result.

For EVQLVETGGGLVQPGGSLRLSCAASGQTLNSYGISWVRQAPGKGPEWVSVIYSDGSRTFYGDSVKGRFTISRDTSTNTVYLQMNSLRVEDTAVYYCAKGRGAGTFDSWGQGTLVTVSS, the assay gave nd, nd, nd (controls 0 of 9).
For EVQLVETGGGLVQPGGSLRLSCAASGFTLTSYGISWVRQAPGKGPEWVSVIYFYGRRTFYGDSVKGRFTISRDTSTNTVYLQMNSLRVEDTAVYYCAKGRAAGTFDSWGQGTLVTVSS, the assay gave 3.14, nd, nd (controls 3 of 9).
For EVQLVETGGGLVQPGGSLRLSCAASRQTLNSYGISWVRQAPGKGPEWVSVIYSDGRRTFYGDSIKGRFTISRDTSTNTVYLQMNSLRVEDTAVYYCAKGRAAGTFDSWGQGTLVTVSS, the assay gave 3.90, 4.09, 3.02 (controls 3 of 9).
For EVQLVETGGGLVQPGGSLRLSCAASGFTLNFVGISWVRQAPGKGPEWVSVIYSDGRRTFYGDSVKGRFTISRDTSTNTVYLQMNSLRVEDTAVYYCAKGRAAGTFKSWGQGTLVTVSS, the assay gave nd, nd, nd (controls 0 of 9).
For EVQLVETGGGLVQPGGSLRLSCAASGCTLNSAGISWVRQAPGKGPEWVSVIYSDGRRTFYGDSVKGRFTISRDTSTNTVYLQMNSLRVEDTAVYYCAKGRASGTFDSWGQGTLVTVSS, the assay gave nd, nd, nd (controls 1 of 9).
For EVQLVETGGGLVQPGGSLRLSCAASGFTLNSYGISWVRQAPGKGPEWVSVIYSGGRRTFWGDSVKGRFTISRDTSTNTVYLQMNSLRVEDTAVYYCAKGRAATTFDSWGQGTLVTVSS, the assay gave nd, nd, nd (controls 0 of 9).
For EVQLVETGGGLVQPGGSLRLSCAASGFTLNSYGIPWVRQAPGKGPEWVSVIYSDGRRTFYGDSVKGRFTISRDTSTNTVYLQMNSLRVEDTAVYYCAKGCEAGTFDSWGQGTLVTVSS, the assay gave 4.75, nd, nd (controls 0 of 9).
For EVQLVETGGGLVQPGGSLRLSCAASGFTLNSYGISWVRQAPGKGPEWVSVIYSQGRQTFYGDSVKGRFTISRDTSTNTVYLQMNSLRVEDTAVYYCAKGRADGTFDSWGQGTLVTVSS, the assay gave 4.47, 3.12, 6.15 (controls 7 of 9).
For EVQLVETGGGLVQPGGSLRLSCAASGFTLTSYGISWVRQAPGKGPEWVSVIYSDGRHTQYGDSVKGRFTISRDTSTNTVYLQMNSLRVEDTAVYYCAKGRAAGTFDSWGQGTLVTVSS, the assay gave nd, nd, nd (controls 0 of 9).
For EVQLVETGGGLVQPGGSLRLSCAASGFTQNSYGISWVRQAPGKGPEWVSVIYSDGRRTFYGDSVKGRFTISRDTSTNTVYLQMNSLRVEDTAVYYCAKGRAAGTFDSWGQGTLVTVSS, the assay gave nd, nd, 3.23 (controls 1 of 9).
For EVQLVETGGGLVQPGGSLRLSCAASGFESNSYGISWVRQAPGKGPEWVSVIYSDGRRTFQGDSVKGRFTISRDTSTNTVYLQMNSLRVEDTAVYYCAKGRAAGTFDSWGQGTLVTVSS, the assay gave 5.37, 3.39, nd (controls 1 of 9).
For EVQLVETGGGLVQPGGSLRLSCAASGFTLNSYGISWVRQAPGKGPEWVSVIYSDGRRTFYGRSVKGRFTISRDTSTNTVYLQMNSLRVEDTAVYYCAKFRAAGTFDSWGQGTLVTVSS, the assay gave nd, nd, nd (controls 0 of 9).
For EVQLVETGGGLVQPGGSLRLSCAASGFTLNSYGISWVRQAPGKGPEWVSVIYSDGRRTFCGDSVRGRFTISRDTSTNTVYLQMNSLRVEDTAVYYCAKGSAAGTFDSWGQGTLVTVSS, the assay gave 2.32, 2.02, 2.17 (controls 1 of 9).
For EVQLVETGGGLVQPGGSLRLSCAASGFTLNSYGISWVRQAPGKGPEWVSVIYSDTRRTFYGDSVKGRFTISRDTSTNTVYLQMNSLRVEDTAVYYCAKGRAAGMFDSWGQGTLVTVSS, the assay gave nd, nd, nd (controls 0 of 9).
For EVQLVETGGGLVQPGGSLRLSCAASGFTLNSYGISWVRQAPGKGPEWVSVEYSDGRHTFYGDDVKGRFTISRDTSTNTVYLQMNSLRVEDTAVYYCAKGRAAGTFDSWGQGTLVTVSS, the assay gave nd, nd, nd (controls 2 of 9).
For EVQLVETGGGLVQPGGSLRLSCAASGFTLNSYGISWVRQAPGKGPEWVSVYYSDGRRTFYGDGVKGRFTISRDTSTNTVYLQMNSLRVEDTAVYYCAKGRAQGTFDSWGQGTLVTVSS, the assay gave nd, nd, nd (controls 2 of 9).
For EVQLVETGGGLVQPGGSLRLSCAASGFTLNSYGISWVRQAPGKGPEWVSVIYSDGSRTFAGDSVKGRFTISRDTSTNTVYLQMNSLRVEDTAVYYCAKGRQAGTFDSWGQGTLVTVSS, the assay gave 2.87, 2.47, 2.45 (controls 1 of 9).
For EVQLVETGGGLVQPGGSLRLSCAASGNTLNSYYISWVRQAPGKGPEWVSVIYSDGRRTFYVDSVKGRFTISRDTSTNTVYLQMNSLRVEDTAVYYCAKGRAAGTFDSWGQGTLVTVSS, the assay gave 4.48, 4.04, 5.54 (controls 4 of 9).
For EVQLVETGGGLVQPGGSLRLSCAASGFTLNSYGISWVRQAPGKGPEWVSVITSDGRRTFYGDSVKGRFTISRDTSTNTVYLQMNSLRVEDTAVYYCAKGRAASTFDSWGQGTLVTVSS, the assay gave nd, 3.25, 3.30 (controls 2 of 9).

The closing 3 entries, repeated:

VH	log10 Kd (nM) by replicate	signal with controls
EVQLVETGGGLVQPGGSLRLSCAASGFTLNSYGISWVRQAPGKGPEWVSVIYSDGSRTFAGDSVKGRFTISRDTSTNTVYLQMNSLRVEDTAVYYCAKGRQAGTFDSWGQGTLVTVSS	2.87, 2.47, 2.45	1/9
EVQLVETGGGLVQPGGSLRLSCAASGNTLNSYYISWVRQAPGKGPEWVSVIYSDGRRTFYVDSVKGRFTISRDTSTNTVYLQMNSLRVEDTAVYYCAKGRAAGTFDSWGQGTLVTVSS	4.48, 4.04, 5.54	4/9
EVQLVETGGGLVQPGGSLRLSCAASGFTLNSYGISWVRQAPGKGPEWVSVITSDGRRTFYGDSVKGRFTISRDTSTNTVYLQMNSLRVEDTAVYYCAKGRAASTFDSWGQGTLVTVSS	nd, 3.25, 3.30	2/9

Parent in this assay: reference entry 0.65, copy in this library 4.11 (one replicate of three).